This is a selection; strong and weak results do not stand in their true shares. Active and inactive are the calls of the source. No stated cut-off is given here; in the data, active means inhibition above about 50%; inactive means the rest.

Sequences of proteins named here, by UniProt entry; tags and fusion partners are left off. Residues count along the entry.
UniProt P26358, 504-1616 limits assumed: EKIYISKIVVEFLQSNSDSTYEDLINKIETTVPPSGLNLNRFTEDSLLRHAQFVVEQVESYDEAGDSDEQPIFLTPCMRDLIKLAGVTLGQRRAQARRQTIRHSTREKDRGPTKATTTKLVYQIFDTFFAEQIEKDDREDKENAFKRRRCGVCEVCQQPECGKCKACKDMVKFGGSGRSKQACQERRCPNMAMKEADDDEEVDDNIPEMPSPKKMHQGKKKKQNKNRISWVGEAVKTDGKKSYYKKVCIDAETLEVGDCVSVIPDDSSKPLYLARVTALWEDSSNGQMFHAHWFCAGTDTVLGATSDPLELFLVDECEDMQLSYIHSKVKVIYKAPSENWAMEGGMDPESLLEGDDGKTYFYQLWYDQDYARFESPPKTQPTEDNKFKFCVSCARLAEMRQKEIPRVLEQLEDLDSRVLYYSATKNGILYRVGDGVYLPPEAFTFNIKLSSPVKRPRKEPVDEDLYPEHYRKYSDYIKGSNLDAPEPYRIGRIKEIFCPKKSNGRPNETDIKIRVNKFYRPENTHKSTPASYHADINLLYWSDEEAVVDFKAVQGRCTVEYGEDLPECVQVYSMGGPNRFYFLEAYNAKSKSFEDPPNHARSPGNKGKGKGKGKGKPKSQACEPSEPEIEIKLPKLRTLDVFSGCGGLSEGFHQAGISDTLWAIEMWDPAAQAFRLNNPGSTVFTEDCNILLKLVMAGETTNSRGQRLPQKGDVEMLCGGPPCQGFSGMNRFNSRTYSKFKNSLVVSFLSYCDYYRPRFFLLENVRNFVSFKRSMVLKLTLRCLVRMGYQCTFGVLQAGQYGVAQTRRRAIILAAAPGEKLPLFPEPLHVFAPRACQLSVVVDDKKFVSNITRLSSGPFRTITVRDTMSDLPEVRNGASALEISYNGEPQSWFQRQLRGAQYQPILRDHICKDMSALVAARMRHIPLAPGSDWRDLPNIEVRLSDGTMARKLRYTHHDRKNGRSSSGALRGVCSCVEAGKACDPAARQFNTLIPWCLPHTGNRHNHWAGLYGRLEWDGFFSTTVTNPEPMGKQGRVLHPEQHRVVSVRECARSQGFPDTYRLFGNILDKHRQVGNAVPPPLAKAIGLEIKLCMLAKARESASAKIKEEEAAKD

For the experiment, the target named is DNA (cytosine-5)-methyltransferase 1 (Homo sapiens) (UniProt P26358). Put plainly: human DNMT1 methyltransferase inhibitors, primary screen, biochemical, molecular beacon, fluorescence, HinP1I cleavage, uHTS (AID 588458). The following applies: at 10 µM, stronger effect = higher value.
Take `CCC(=O)N(c1ccccc1)C1(COC)CCN(CCc2cccs2)CC1`: the inhibition (reported as % activation of signal) is inactive: 1.71%. On to `CCC(=O)N(c1ccccc1)C1(COC)CCN(CCn2nnn(CC)c2=O)CC1`, for which the inhibition (reported as % activation of signal) is inactive: -1.96%.

Values taken from PubChem BioAssay AID588458 (Sanford-Burnham Center for Chemical Genomics, 2011).
